Properties, as collected for the OPERA models

From the experimental data distributed with OPERA 2.9.

Melting points are in °C. Boiling points are in °C, nominally at 760 mmHg. The octanol-water partition coefficient is given as log10; larger values mean a more lipophilic compound. Solubility in water is on a log10 molar scale (set defined at 25 °C). Vapor pressure is log10 of mmHg; the set covers 15 to 30 °C, mostly 20 to 25 °C. The unbound fraction in human plasma runs from 0 (all bound) to 1 (all free). Clint is human hepatic intrinsic clearance in µL/min per million cells; 0 means that no clearance was seen. "n/a" marks a cell with nothing listed here.

Listed for C=CC(C)(CCC=C(C)C)OC(C)OCC (configuration not stated) [1,6-Octadiene, 3-(1-ethoxyethoxy)-3,7-dimethyl-]: water solubility -3.976 (log10 mol/L) and log vapor pressure -1.38 (log10 mmHg).
Listed for O=C(Nc1cccc([N+](=O)[O-])c1)c1cc2ccccc2cc1O [3-Hydroxy-N-(3-nitrophenyl)naphthalene-2-carboxamide]: logP 4.3 and water solubility -6.644 (log10 mol/L).
Listed for Brc1cccc2c1-c1ccccc1C21c2ccccc2-c2ccccc21: mp 156.7 °C and water solubility -7.296 (log10 mol/L) and log vapor pressure -8.223 (log10 mmHg).
Listed for CCCS(=O)(=O)Nc1ccc(F)c(C(=O)c2cn(C(=O)c3c(Cl)cccc3Cl)c3ncc(Br)cc23)c1F: mp 209 °C and water solubility -6.044 (log10 mol/L).
Listed for NNC(=O)CCCCCCCCC(=O)NN [Decanedioic acid, 1,10-dihydrazide]: logP -0.315 and water solubility -3.044 (log10 mol/L) and log vapor pressure -8.253 (log10 mmHg).
Listed for O=C(O)CC[C@@H](C(=O)O)N1C(=O)c2ccccc2C1=O [L-2-Phthalimidoglutaric acid]: logP 0.45 and log vapor pressure -4.614 (log10 mmHg).
Listed for O=C(OCCOCCOCCOC(=O)c1ccccc1)c1ccccc1 [Ethylenebis(oxyethylene) dibenzoate]: logP 3.2 and water solubility -4.071 (log10 mol/L) and log vapor pressure -6.721 (log10 mmHg).
Listed for CCCC1CCC(C2CCC(c3ccc(OC(F)(F)F)cc3)CC2)CC1 (configuration not stated): mp 69.9 °C and water solubility -6.265 (log10 mol/L).
Listed for CCC(C)=NO[Si](C)(ON=C(C)CC)ON=C(C)CC [Methyltri(2-butanoneoximyl)silane]: BP 250 °C and log vapor pressure -3.195 (log10 mmHg).
Listed for Cc1c(Nc2nc(Cl)nc(Nc3cccc(S(=O)(=O)[O-])c3)n2)c(C)c(S(=O)(=O)[O-])c(C)c1Nc1cc(S(=O)(=O)[O-])c(N)c2c1C(=O)c1ccccc1C2=O.[Na+].[Na+].[Na+]: mp 330 °C and logP -3.88.
Listed for O=S1(=O)CC=CC1 [2,5-Dihydrothiophene 1,1-dioxide]: logP 1 and log vapor pressure -2.011 (log10 mmHg).
Listed for O[C@H]1CO[C@H]2OCC[C@H]21 [(3R,3aS,6aR)-Hexahydrofuro[2,3-b]furan-3-ol]: mp -23.98 °C and logP 1.055 and log vapor pressure -2.846 (log10 mmHg).
Listed for C=CC(=O)OCC(C)(COC(=O)C=C)N=C=O [1,1-Bis(acryloyloxymethyl)ethyl isocyanate]: mp -88.9 °C and log vapor pressure -2.824 (log10 mmHg).
Listed for CCCCCCCCCCCCSC(C)CC(=O)[C@@H]1[C@@H](C)C=CCC1(C)C (relative stereo): mp 19 °C and logP 9.4 and water solubility -8.897 (log10 mol/L).
Listed for CC1CCC2CC1C2(C)C (configuration not stated) [Pinane]: logP 4.35 and water solubility -4.414 (log10 mol/L) and log vapor pressure 0.438 (log10 mmHg).
Listed for CCc1cc2c(cc1CC)CC(NC[C@H](O)c1ccc(O)c3[nH]c(=O)ccc13)C2 [Indacaterol]: mp 195 °C and water solubility -4.692 (log10 mol/L).
Listed for CCCCCCCC/C=C\CCCCCCCCNCCCN [N-Oleyl-1,3-propanediamine]: mp 3 °C and logP 0.03 and water solubility -3.955 (log10 mol/L).
Listed for CCCCCCCC(=O)OC [Methyl octanoate]: logP 3.32 and hepatic Clint 817 µL/min/10^6 cells.
Listed for CCn1c(O)c(/N=N/c2cc(Nc3nc(Cl)nc(Nc4ccc(-c5nc6ccc(C)c(S(=O)(=O)[O-])c6s5)cc4)n3)ccc2S(=O)(=O)[O-])c(C)c(C(N)=O)c1=O.[Na+].[Na+]: mp 347 °C and logP -2.63.
Listed for CN(C)[C@@H]1C(O)=C(C(=O)NCN2CCCC2)C(=O)[C@@]2(O)C(O)=C3C(=O)c4c(O)cccc4[C@@](C)(O)C3C[C@@H]12 (some centres undefined): water solubility -1.42 (log10 mol/L) and plasma fu 0.5.
Listed for C=C(C)[C@@H]1CC[C@@H](C)C[C@H]1O [(-)-Isopulegol]: logP 2.4 and water solubility -1.711 (log10 mol/L) and log vapor pressure -0.966 (log10 mmHg).
Listed for c1cc2ccc1CCc1ccc(cc1)CC2: water solubility -5.169 (log10 mol/L) and log vapor pressure -5.375 (log10 mmHg).
Listed for NCCCCCCCCCCN [1,10-Decanediamine]: BP 272.7 °C and log vapor pressure -3.824 (log10 mmHg).
Listed for CCN1CCOCC1.Cc1ccc(C(=O)CCC(=O)O)cc1.Cc1ccc(C(=O)CCC(=O)O)cc1: logP 0.116 and log vapor pressure -6.409 (log10 mmHg).
Listed for CCCCC(CC)CN(CC(CC)CCCC)CC(CC)CCCC (configuration not stated) [1-Hexanamine, 2-ethyl-N,N-bis(2-ethylhexyl)-]: mp -94 °C and logP 8.7 and water solubility -8.248 (log10 mol/L) and log vapor pressure -5.139 (log10 mmHg).
Listed for C=C(C)C(=O)OCC1COC(C)(C)O1 (configuration not stated): logP 2 and log vapor pressure -1.401 (log10 mmHg).
Listed for Clc1cc(Oc2ccccc2)cc(Cl)c1Cl [3,4,5-Trichlorodiphenyl ether]: mp 54 °C and water solubility -6.77 (log10 mol/L).
Listed for CC(C)[C@@H](C)/C=C/[C@@H](C)[C@H]1CC[C@H]2/C(=C/C=C3\C[C@@H](O)CC[C@@H]3C)CCC[C@]12C [Dihydrotachysterol]: logP 7.5 and water solubility -6.504 (log10 mol/L).
Listed for Clc1ccccc1-c1cc(Cl)c(Cl)c(Cl)c1: mp 106 °C and water solubility -6.907 (log10 mol/L) and log vapor pressure -3.943 (log10 mmHg).

Excerpt, the final 4 entries:

structure (SMILES)	name	mp (°C)	BP (°C)	logP	water solubility (log10 mol/L)	log vapor pressure (log10 mmHg)	plasma fu	hepatic Clint (µL/min/10^6 cells)
C=C(C)C(=O)OCC1COC(C)(C)O1 (configuration not stated)	n/a	n/a	n/a	2	n/a	-1.401	n/a	n/a
Clc1cc(Oc2ccccc2)cc(Cl)c1Cl	3,4,5-Trichlorodiphenyl ether	54	n/a	n/a	-6.77	n/a	n/a	n/a
CC(C)[C@@H](C)/C=C/[C@@H](C)[C@H]1CC[C@H]2/C(=C/C=C3\C[C@@H](O)CC[C@@H]3C)CCC[C@]12C	Dihydrotachysterol	n/a	n/a	7.5	-6.504	n/a	n/a	n/a
Clc1ccccc1-c1cc(Cl)c(Cl)c(Cl)c1	n/a	106	n/a	n/a	-6.907	-3.943	n/a	n/a

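The numbers are reported measurements, compiled and curated for the OPERA QSAR suite. A listed value is a point estimate from one report or more. Conditions of the individual experiments are not part of the data. A value may pool stereoisomers or salt forms, and the file does not say which form was measured. Some entries may be limits or estimates that an upstream database listed as plain numbers.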